Measured affinities in a library of Ab-14 light chain variants

Source: Engelhart et al. 2022 (doi:10.1038/s41597-022-01779-4), MIT Lincoln Laboratory and A-Alpha Bio; data file from the FLAb repository.

All variants were tested on one target, the spike HR2 peptide PDVDLGDISGINAS (SARS-CoV-2).

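The parent was found by panning a naive human phage display library on the peptide. In library AAYL50, one, two or three CDR residues were substituted; doubles and triples were drawn at random. In AlphaSeq, yeast of one mating type display the scFv and yeast of the other type display the target. Pairs that bind mate more often; barcode pairs of the diploids are counted by sequencing. A regression on co-assayed BCL2-family reference pairs converts the normalised counts of each replicate to an apparent Kd. The assay was run in three technical replicates.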

Parent: Ab-14, a human scFv built as VH, the linker GGGGSGGGGSGGGGS, VL. Only the CDRs of the light chain vary.
VH: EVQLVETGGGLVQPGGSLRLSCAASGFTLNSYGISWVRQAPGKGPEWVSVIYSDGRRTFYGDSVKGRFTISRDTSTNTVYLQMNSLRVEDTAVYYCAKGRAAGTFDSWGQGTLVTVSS
VL: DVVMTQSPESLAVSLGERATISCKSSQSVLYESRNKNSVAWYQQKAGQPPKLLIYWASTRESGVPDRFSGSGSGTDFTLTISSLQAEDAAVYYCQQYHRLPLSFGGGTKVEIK

Each variant is given by its three light chain CDRs, as the data file delimits them; those of the parent are KSSQSVLYESRNKNSVA, WASTRES, QQYHRLPLS.
This list gathers variants with a substitution at S33 (VL, numbered from residue 1).
Affinities are written as log10 Kd with Kd in nM; a lower number is a better binder.
The mean shown is taken over the replicates in which the pair was detected.
Where no diploid with the target was found in that replicate, the entry reads "nd": below detection, most likely a poor binder, though not proof of it.
Three control strains display no target. For library AAYL50, 18% of the pairings with them gave a signal, with a median of 4.19 and one signal in twenty below 2.99, so weak values seen in few replicates may be background.

- KSSQSVNYELRNKNSVA, WASTRES, QQYHRCPLS: 1.88, 1.83, 1.99 (mean 1.90)
- KSSQSMLYELENKNSVA, WASTRES, QQYHRLPLS: 0.40, 0.54, 0.63 (mean 0.52)
- WKSQSVLYEHRNKNSVA, WASTRES, QQYHRLPLS: nd, nd, nd
- PSSQSVLYEKRNKNSVA, WASTRES, QQYHRLHLS: nd, 3.26, 4.65 (mean 3.96)
- KSSQSVLYENRNKNSVI, WASTRES, QQYTRLPLS: nd, nd, nd
- KSSQSVLYEYPNKNSVA, WASTRES, QQAHRLPLS: nd, 3.81, nd
- ASSQSVLYEQRNKNSVA, WASTRES, QQYHKLPLS: 1.45, 1.61, 1.49 (mean 1.52)
- KSSQSVLYEPRNKNSDA, WASTRES, QQYHRHPLS: nd, nd, nd
- KSSQSVLYETHNKNSVA, WASTRES, QQYARLPLS: 0.94, 1.00, 0.88 (mean 0.94)
- KSSQSVLYEKRNKMSVA, WASTRES, QQYHRLDLS: 4.38, 3.69, 4.13 (mean 4.06)
- KSSQSVLYEMRNKNSVA, WASTREH, QTYHRLPLS: 1.85, 2.09, 2.17 (mean 2.04)
- KSSQSVLYEPRNKNSVD, WASTRES, DQYHRLPLS: nd, nd, 4.00
- KSSQSVHYEGRNKNSVA, WASTRNS, QQYHRLPLS: 0.53, 1.64, 0.59 (mean 0.92)
- KSSQSVLYEGINKNSVA, WASTRES, QQYHRLQLS: 2.77, nd, nd
- KSSQSVLYERRNKNSVA, WASGREN, QQYHRLPLS: nd, nd, nd
- KYSQSVLYETRNKNSVA, WASTRES, QQYHRLPLS: 0.96, 1.07, 1.01 (mean 1.01)
- KSSQSVCYEWRNKNSVA, WASTRDS, QQYHRLPLS: 1.75, 1.91, 2.78 (mean 2.15)
- KSSQSVLYEQRNKNSVA, WGETRES, QQYHRLPLS: 1.02, 1.22, 1.14 (mean 1.13)
- KGSQSVLYENRNKNSVA, WGSTRES, QQYHRLPLS: 0.48, 0.97, 0.76 (mean 0.74)
- KSSQSVLYEYRNKNLVA, WASTRES, QQYHRLPLW: nd, nd, nd
- KSSASVLYEPRNKNSVA, WASTRNS, QQYHRLPLS: 2.52, 1.23, 1.81 (mean 1.85)
- KSSQSVLYEERNLNSVA, WASMRES, QQYHRLPLS: 0.61, 0.51, 0.80 (mean 0.64)
- KSSQFVLYEGRNKNSVA, WASNRES, QQYHRLPLS: 1.37, 1.60, 1.77 (mean 1.58)
- KSSQSVLYELNNKNSGA, WASTRES, QQYHRLPLS: nd, nd, nd
- KSSQSVLYERHNKNSVA, WASTRES, QQYHWLPLS: 2.33, 2.49, 2.38 (mean 2.40)
- KSSQSVLYEYRNINSVA, WASTRES, QQYHRLPLS: 1.41, 1.39, 1.55 (mean 1.45)
- KSSQSVLYEARNKNSVA, WAMHRES, QQYHRLPLS: nd, nd, nd
- KSSQSVLYECDNKNSVA, WACTRES, QQYHRLPLS: 2.93, nd, 3.45 (mean 3.19)
- KSSQSVLYEMRNKNSVA, WFSTRES, QQYHRLPHS: nd, 4.33, nd
- KSSQSVLYENRNKNSVA, WASTRGS, QQYHRLPLY: 2.30, 2.63, 2.77 (mean 2.57)
- KSSQSSLYETRNKNSVA, WASTRES, QQYHRLPLG: 2.39, 3.29, 2.68 (mean 2.79)
- KSSQSVLYENRNKNSVM, WASTRES, QQYHRLPLA: nd, nd, nd
- KSSQSVLYERRNKNSVA, WASTRCS, QQYHRLMLS: 4.17, nd, nd
- KSSQSVLYEKRNKNIVA, WASTKES, QQYHRLPLS: 4.09, 3.56, nd (mean 3.82)
- KSSQSVLYEMRNKNSVD, WASTRES, QQYHRLPLS: nd, nd, nd
- KSSQSVLYEQRNKNSVA, CASTRES, QQYHYLPLS: 2.85, 2.03, 3.00 (mean 2.63)

Extract of 2 entries:

| CDR-L1 | CDR-L2 | CDR-L3 | log10 Kd (nM) by replicate | mean log10 Kd (nM) |
|---|---|---|---|---|
| KSSQSVLYECDNKNSVA | WACTRES | QQYHRLPLS | 2.93, nd, 3.45 | 3.19 |
| KSSQSVLYERRNKNSVA | WASTRCS | QQYHRLMLS | 4.17, nd, nd | 4.17 |

For reference, the parent read 0.65 as the reference entry and 1.68 as a member of this library.